Reference: PMC7956344, “Structure Elucidation and Cholinesterase Inhibition Activity of Two New Minor Amaryllidaceae Alkaloids” (Molecules, 2021)

Chains of the proteins cited; added tags and fusions are not shown. Residues count along the entry.
UniProt P06276, 29-602: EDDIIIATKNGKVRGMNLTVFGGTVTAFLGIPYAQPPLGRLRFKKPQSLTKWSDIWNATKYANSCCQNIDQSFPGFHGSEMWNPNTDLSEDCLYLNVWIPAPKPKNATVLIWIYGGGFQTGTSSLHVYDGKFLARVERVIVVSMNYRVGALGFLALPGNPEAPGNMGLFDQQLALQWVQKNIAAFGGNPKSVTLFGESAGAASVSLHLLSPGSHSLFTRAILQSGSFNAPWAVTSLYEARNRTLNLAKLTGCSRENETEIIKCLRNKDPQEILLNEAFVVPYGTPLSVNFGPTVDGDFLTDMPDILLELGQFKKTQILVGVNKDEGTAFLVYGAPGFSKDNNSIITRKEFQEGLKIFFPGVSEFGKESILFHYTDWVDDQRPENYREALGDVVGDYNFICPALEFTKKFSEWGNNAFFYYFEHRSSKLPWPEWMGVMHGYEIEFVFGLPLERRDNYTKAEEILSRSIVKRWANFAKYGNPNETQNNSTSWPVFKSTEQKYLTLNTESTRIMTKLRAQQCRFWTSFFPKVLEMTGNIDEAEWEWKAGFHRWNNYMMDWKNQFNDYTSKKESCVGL

Biological target: human butyrylcholinesterase (hBuChE) (Homo sapiens, UniProt P06276)
Assay: hBuChE inhibition assay (modified Ellman method, BuTChI substrate)
Format: biochemical
Conditions: tested at 100 µM compound concentration

In the case of `CNC(=O)Oc1ccc2c(c1)[C@]1(C)CCN(C)[C@@H]1N2C` [eserine], the “% Inhibition hBuChE ± SEM” value is reported as 99.9 ± 0.5%.
